# Reference: patent publication US5093325A, “Combination preparation having antithrombotic action” (priority 1989, dated 1992)
# Test system: human platelets
# Assay: Inhibition of collagen-stimulated aggregation of human platelets in platelet-rich plasma (aggregometer)
# Type: cell-based
# Details: ASA 3×10^-5, 10^-4 and 3×10^-4 M, separately
# Procedure: Human platelet-rich plasma (PRP) is incubated in an aggregometer at 37° C. and mixed with […] of collagen to cause aggregation. […] The course of the aggregation is recorded in the aggregometer. 10 minutes after collagen addition, the samples are centrifuged at 3000 rpm and the supernatant is tested with an enzyme linked immunosorbent assay (ELISA) for its content of plasminogen activator inhibitor-1 (PAI-1) and with a radioimmunoassay (RIA) for the content of platelet-derived growth factor (PDGF).
compound,measurement,value
"CC(=O)Oc1ccccc1C(=O)O [ASA, acetylsalicylic acid]","platelet aggregation inhibition, in words",ineffective or slightly effective
